Results from paper PMC10864275.

Amino acid sequences for entries named in this document (tags omitted). A change or cut given only in a name is not applied to a line headed by its entry.
UniProt P07700: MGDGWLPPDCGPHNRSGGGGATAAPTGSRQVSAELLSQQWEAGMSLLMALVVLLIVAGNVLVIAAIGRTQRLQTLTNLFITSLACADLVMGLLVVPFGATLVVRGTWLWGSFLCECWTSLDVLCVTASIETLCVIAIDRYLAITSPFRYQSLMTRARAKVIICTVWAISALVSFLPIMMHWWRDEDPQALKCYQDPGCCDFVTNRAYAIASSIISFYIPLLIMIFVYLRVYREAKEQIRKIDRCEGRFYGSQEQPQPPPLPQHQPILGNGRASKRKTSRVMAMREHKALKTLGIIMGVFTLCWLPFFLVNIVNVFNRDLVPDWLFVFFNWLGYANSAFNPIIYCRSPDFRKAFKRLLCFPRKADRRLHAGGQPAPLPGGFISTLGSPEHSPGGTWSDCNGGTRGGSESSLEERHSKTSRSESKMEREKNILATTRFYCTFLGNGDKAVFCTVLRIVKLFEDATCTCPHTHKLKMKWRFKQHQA

Biological target: avi-β1AR-W (turkey β1-adrenergic receptor β1AR-MetΔ5, thermostabilised with E130W, N-terminal biotinylated avi-tag) (turkey) (UniProt P07700)
Assay: BLI; biotinylated avi-tagged receptor in LMNG immobilised on streptavidin biosensors; 500 μM salbutamol (partial agonist); mini-Gs in solution at a single concentration (1 or 2 μM); 20 mM TrisHCl pH 8.0, 150 mM NaCl, 15 mM MgCl2, 0.02% LMNG, 0.1% BSA; 25 °C; 1:1 monophasic local partial fit; one of n = 3 tips

mini-Gs 393 C96A (domain or fragment)
Kd: 1.47 µM
